For series [1] the following is noted: human, in vivo.
The next series in a line: clinical. The note with it: human, plasma, subcutaneous.
Series [2] has as its target CRFR2 (Rattus norvegicus, UniProt P47866). The note with it: rats, identified together with CL; cited from earlier work.
The conditions of series [3]: healthy humans; PK-PD modeling of bolus dosing in prior Phase 1 trial.
The target in series [4] is T1, CRFR2 (Homo sapiens, UniProt Q13324).
T1 sequence (Q13324 1-411): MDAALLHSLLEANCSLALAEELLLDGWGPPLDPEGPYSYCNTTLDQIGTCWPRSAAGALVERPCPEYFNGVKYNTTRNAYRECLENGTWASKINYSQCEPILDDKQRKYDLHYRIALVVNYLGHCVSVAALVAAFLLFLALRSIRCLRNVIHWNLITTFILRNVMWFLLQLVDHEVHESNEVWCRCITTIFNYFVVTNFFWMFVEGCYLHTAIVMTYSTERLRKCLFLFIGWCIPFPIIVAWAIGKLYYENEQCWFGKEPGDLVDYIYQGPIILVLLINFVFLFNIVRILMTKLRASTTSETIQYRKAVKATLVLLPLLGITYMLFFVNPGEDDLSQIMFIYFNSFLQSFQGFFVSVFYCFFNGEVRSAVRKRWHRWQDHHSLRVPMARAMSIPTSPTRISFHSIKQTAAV
Kind of series: Agonist potency at CRFR2 (EC50, % of Emax). It is filed as cell-based.

Amino acid sequences for entries named in this document (tags omitted).
UniProt P47866, whole entry: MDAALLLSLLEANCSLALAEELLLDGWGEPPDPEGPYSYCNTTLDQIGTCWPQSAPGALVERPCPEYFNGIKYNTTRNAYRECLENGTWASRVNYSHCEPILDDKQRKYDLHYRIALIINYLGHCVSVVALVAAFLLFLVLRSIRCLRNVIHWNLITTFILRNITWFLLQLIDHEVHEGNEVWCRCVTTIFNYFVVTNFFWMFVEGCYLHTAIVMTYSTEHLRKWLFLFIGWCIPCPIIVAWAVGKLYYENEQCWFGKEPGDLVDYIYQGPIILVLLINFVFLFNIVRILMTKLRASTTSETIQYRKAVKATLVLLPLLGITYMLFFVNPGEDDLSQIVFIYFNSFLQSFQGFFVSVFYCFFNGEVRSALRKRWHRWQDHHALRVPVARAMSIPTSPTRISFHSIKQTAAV

Series [5] deals with T1, CRFR2. Description: Phase 1/2 trial in ME/CFS patients: acute heart rate and diastolic blood pressure changes. It is filed as in vivo. On the set-up: from tissue; host or cells: human subjects, in vivo (clinical trials). The note with it: D20pb (priming bolus 0.15 μg/kg + infusion 0.20-0.24 μg/kg/h), first patient. From the text: FIG. 4 compares the pre/post-treatment changes in TDSS (total daily symptom score) and individual symptoms in the 28-day period prior to the start of treatment, with those in the 28-day period prior to exit from the trial, by dose group. […] TDSS improved persistently at D03 (pre: 29.2±3.7; post: 21.7±4.1; p=0.009; change: −25.7%), and trended better at D01 (pre: 28.7±3.4; post: 25.5±4.1; p=0.136; change: −11.1%) and D06 (pre: 31.3±2.4; post: 29.5±2.1; p=0.451; change: −5.6%), but worsened at D20 (pre: 30.1±5.1; post: 33.0±2.5; p=0.240; change: +9.6%). Most individual symptoms changed persistently, in a manner reflecting this biphasic dose-response. For instance, at D03, the therapeutic response was strong for most of the cardinal symptoms of ME/CFS, while at D20 symptoms predominantly worsened.

The conditions of series [6]: healthy humans, prior Phase 1 trial; cited from earlier work.
Setting [7] is: D03: sc infusion 0.03 μg/kg/hour, 3.5 hours, 3 treatments.

SMILES strings stand for the structures. Read-outs that look alike come from different tables or passages of the source. Marks after values point to notes of the source that are not given here.

Turning to `CC[C@H](C)[C@H](NC(=O)[C@@H](NC(=O)[C@H](CC(=O)O)NC(=O)[C@H](CC(C)C)NC(=O)[C@H](CC(C)C)NC(=O)[C@H](CCCNC(=N)N)NC(=O)[C@H](C)NC(=O)[C@H](CC(N)=O)NC(=O)[C@H](CC(N)=O)NC(=O)[C@H](C)NC(=O)[C@H](C)NC(=O)[C@H](CCC(N)=O)NC(=O)[C@H](CCC(N)=O)NC(=O)[C@H](CCCCN)NC(=O)[C@H](CCC(=O)O)NC(=O)[C@H](CCCCN)NC(=O)[C@H](CCC(=O)O)NC(=O)[C@H](CCC(N)=O)NC(=O)[C@H](CCCCN)NC(=O)[C@H](CCC(=O)O)NC(=O)[C@@H](NC(=O)[C@H](CCC(=O)O)NC(=O)[C@@H](NC(=O)[C@@H](NC(=O)[C@H](CCCCN)NC(=O)[C@H](CCCNC(=N)N)NC(=O)[C@H](CC(C)C)NC(=O)[C@H](CC(C)C)NC(=O)[C@H](CCC(N)=O)NC(=O)[C@H](Cc1ccccc1)NC(=O)[C@@H]1CCCN1C(=O)[C@H](CC(C)C)NC(=O)[C@H](CC(=O)O)NC(=O)[C@@H](NC(=O)[C@H](CO)NC(=O)[C@@H](NC(=O)[C@@H]1CCCN1C(=O)[C@@H]1CCCN1C(=O)CNC(=O)[C@@H]1CCC(=O)N1)[C@@H](C)CC)[C@@H](C)CC)C(C)C)[C@@H](C)CC)[C@@H](C)CC)[C@@H](C)O)C(N)=O` [CT38], the “plasma concentrations found intolerable” value in series [1] is over 0.7 ng/mL. This molecule came in with a maximum concentration (Cmax) in “clinical” (0.06 ug/kg, mean Cmax, D06 (0.06 μg/kg/h)) of 0.27 to 0.31 ng/mL. In addition, the “Total AUC” value at CRFR2 [2] is about 40 ng·h/mL. Also, the “total AUC, human equivalent” value in series [3] is about 7.0 ng·h/mL. Further, at CRFR2 [4], the maximal effect (Emax) worked out at 100%.
Regarding `CC[C@H](C)[C@H](NC(=O)[C@@H](NC(=O)[C@H](CC(=O)O)NC(=O)[C@H](CC(C)C)NC(=O)[C@H](CC(C)C)NC(=O)[C@H](CCCNC(=N)N)NC(=O)[C@H](C)NC(=O)[C@H](CC(N)=O)NC(=O)[C@H](CC(N)=O)NC(=O)[C@H](C)NC(=O)[C@H](C)NC(=O)[C@H](CCC(N)=O)NC(=O)[C@H](CCC(N)=O)NC(=O)[C@H](CCCCN)NC(=O)[C@H](CCC(=O)O)NC(=O)[C@H](CCCCN)NC(=O)[C@H](CCC(=O)O)NC(=O)[C@H](CCC(N)=O)NC(=O)[C@H](CCCCN)NC(=O)[C@H](CCC(=O)O)NC(=O)[C@@H](NC(=O)[C@H](CCC(=O)O)NC(=O)[C@@H](NC(=O)[C@@H](NC(=O)[C@H](CCCCN)NC(=O)[C@H](CCCNC(=N)N)NC(=O)[C@H](CC(C)C)NC(=O)[C@H](CC(C)C)NC(=O)[C@H](CCC(N)=O)NC(=O)[C@H](Cc1ccccc1)NC(=O)[C@@H]1CCCN1C(=O)[C@H](CC(C)C)NC(=O)[C@H](CC(=O)O)NC(=O)[C@@H](NC(=O)[C@H](CO)NC(=O)[C@@H](NC(=O)[C@@H]1CCCN1C(=O)[C@@H]1CCCN1C(=O)CNC(=O)[C@@H]1CCC(=O)N1)[C@@H](C)CC)[C@@H](C)CC)C(C)C)[C@@H](C)CC)[C@@H](C)CC)[C@@H](C)O)C(N)=O` [CT38s], the hemodynamic effect result at CRFR2 [5] was “increased heart rate and decreased diastolic blood pressure”. The “TEAEs Other: Metabolism/nutritional, number of events” value in series [1] was 1. Also, the “TEAEs Other: Pain, number of events” value in series [1] came out at 2. In addition, in series [1], the “TEAEs TDSS-Related: Anxiety, number of events” value is reported as 1. Also, the “TEAEs TDSS-Related: Depression, number of events” value in series [1] was determined as 2. Further, the “TEAEs TDSS-Related: Shortness of breath, number of events” value in series [1] is recorded as 1. Moreover, the “onset of TEAEs after dose commencement” value in series [1] is at most 10 h. Besides, the safety concerns result in series [1] is “safety concerns were absent”. In series [1], the “share of TEAEs that were mild” value is 79.0%. The “share of TEAEs that were moderate” value in series [1] came out at 18.5%. Also, the “share of TEAEs that were severe” value in series [1] was found to be 2.5%. The “only severe TEAE” value in series [1] (iv) was “tachycardia and hypotension”. Besides, the “average total AUC” value under setting [7] was 2.46 ± 0.51 ng·h/mL. The “mean maximum plasma concentration of CT38” value under setting [7] stood at 0.18 ± 0.03 ng/mL. Besides, the “Total AUC” value reads like this: (patient 23, D20 (0.20-0.24 μg/kg/h), total dose 0.795 μg/kg, ignores leaked infusion) 3.91* ng · h/ml; (patient 24, D20pb then D20, total dose 1.620 μg/kg) 6.24 ng·h/mL; (patient 27, D03 (0.03 μg/kg/h), total dose 0.315 μg/kg) 3.44 ng·h/mL; (patient 29, D03 (0.03 μg/kg/h), total dose 0.285 μg/kg, ignores leaked infusion) 2.23* ng · h/ml; (patient 30, D03 (0.03 μg/kg/h), total dose 0.315 μg/kg) 2.83 ng·h/mL; (patient 31, D03 (0.03 μg/kg/h), total dose 0.315 μg/kg) 2.19 ng·h/mL. In addition, the “Total AUC” value reads like this: (patient 32, D03 (0.03 μg/kg/h), total dose 0.315 μg/kg) 2.30 ng·h/mL; (patient 33, D03 (0.03 μg/kg/h), total dose 0.315 μg/kg) 2.29 ng·h/mL; (patient 34, D06 (0.06 μg/kg/h), 2 treatments, total dose 0.420 μg/kg) 2.94 ng·h/mL; (patient 35, D01 (0.01 μg/kg/h), 1 treatment, total dose 0.035 μg/kg) 0.59 ng·h/mL; (patient 36, D06 (0.06 μg/kg/h), total dose 0.630 μg/kg) 3.10 ng·h/mL; (patient 38, D01 (0.01 μg/kg/h), total dose 0.105 μg/kg) 1.29 ng·h/mL. Further, the “Total AUC” value (patient 45, D01 (0.01 μg/kg/h), total dose 0.105 μg/kg) worked out at 1.02 ng·h/mL and the “Total AUC” value (patient 46, D03 (0.03 μg/kg/h), total dose 0.315 μg/kg) was 1.94 ng·h/mL. Moreover, the maximum concentration (Cmax) in “clinical” (0.01 μg/kg/h, Mean Cmax, patient 35, D01 (0.01 μg/kg/h), 1 treatment, total dose 0.035 μg/kg) was found to be 0.12 ng/mL; in “clinical” (0.01 μg/kg/h, Mean Cmax, patient 38, D01 (0.01 μg/kg/h), total dose 0.105 μg/kg), 0.09 ng/mL; in the series “clinical” (0.01 μg/kg/h, Mean Cmax, patient 45, D01 (0.01 μg/kg/h), total dose 0.105 μg/kg) it was 0.11 ng/mL; in the series “clinical” (0.03 μg/kg/h, Mean Cmax, patient 27, D03 (0.03 μg/kg/h), total dose 0.315 μg/kg), 0.24 ng/mL; in “clinical” (0.03 μg/kg/h, Mean Cmax, patient 29, D03 (0.03 μg/kg/h), total dose 0.285 μg/kg), 0.16 ng/mL; in the series “clinical” (0.03 μg/kg/h, Mean Cmax, patient 30, D03 (0.03 μg/kg/h), total dose 0.315 μg/kg), 0.2 ng/mL. For the same molecule, the Cmax in the series “clinical” (0.03 μg/kg/h, Mean Cmax, patient 31, D03 (0.03 μg/kg/h), total dose 0.315 μg/kg) came to 0.17 ng/mL; in the series “clinical” (0.03 μg/kg/h, Mean Cmax, patient 32, D03 (0.03 μg/kg/h), total dose 0.315 μg/kg), 0.16 ng/mL; in “clinical” (0.03 μg/kg/h, Mean Cmax, patient 33, D03 (0.03 μg/kg/h), total dose 0.315 μg/kg), 0.17 ng/mL; in “clinical” (0.03 μg/kg/h, Mean Cmax, patient 46, D03 (0.03 μg/kg/h), total dose 0.315 μg/kg), 0.15 ng/mL; in “clinical” (0.06 μg/kg/h, Mean Cmax, patient 34, D06 (0.06 μg/kg/h), 2 treatments, total dose 0.420 μg/kg), 0.31 ng/mL; in the series “clinical” (0.06 μg/kg/h, Mean Cmax, patient 36, D06 (0.06 μg/kg/h), total dose 0.630 μg/kg) it was 0.27 ng/mL. Also, the highest concentration (Cmax) was 0.77 ng/mL in “clinical” (1.62 μg/kg, Mean Cmax, patient 24, D20pb then D20, total dose 1.620 μg/kg) and 1.03 ng/mL in the series “clinical” (Mean Cmax, patient 23, D20 (0.20-0.24 μg/kg/h), total dose 0.795 μg/kg). For the same molecule, the “maximum tolerated bolus dose” value in series [6] is 0.833 µg/kg.

What is called Cmax is the highest concentration seen after dosing. One may read the Emax as the size of the effect at its maximum, as opposed to the concentration needed.

The values above are taken from patent US20250319161A1, “IMPROVED METHODS OF TREATING DISEASES RESULTING FROM A MALADAPTED STRESS RESPONSE” (priority 2021, published 2025).
